# From patent US20110092490A1, “PYRIMIDINES, TRIAZINES AND THEIR USE AS PHARMACEUTICAL AGENTS” (THE UNIVERSITY OF NOTTINGHAM, priority 2008, published 2011)
# Tests used:
# HCT-116 = experiment: 72-h MTT cytotoxicity assay; settings: Homo sapiens, HCT-116, 72 h, read-out: Cytotoxicity GI50 HCT116
# [1] = 72-h MTT cytotoxicity assay; settings: human
compound,measurement,setting,value
"CNc1nc(C)c(-c2nc(Nc3cccc(O)c3)ncc2C#N)s1 [Example 1.3, 2-(3-Hydroxy-phenylamino)-4-(4-methyl-2-methylamino-thiazol-5-yl)-pyrimidine-5-carbonitrile]",GI50,HCT-116,0.03 µM
same,GI50 at 72 h,[1],0.54 µM
